The values that follow come from ChEMBL document CHEMBL3430321, “Simulation of multiple ion channel block provides improved early prediction of compounds' clinical torsadogenic risk” (Cardiovasc Res, 2011).

Protein sequences, listed by entry. Tags and fused reporters are not part of them. Lines headed by an entry give the natural chain unless they say otherwise; changes in a name come on top.
UniProt Q12809: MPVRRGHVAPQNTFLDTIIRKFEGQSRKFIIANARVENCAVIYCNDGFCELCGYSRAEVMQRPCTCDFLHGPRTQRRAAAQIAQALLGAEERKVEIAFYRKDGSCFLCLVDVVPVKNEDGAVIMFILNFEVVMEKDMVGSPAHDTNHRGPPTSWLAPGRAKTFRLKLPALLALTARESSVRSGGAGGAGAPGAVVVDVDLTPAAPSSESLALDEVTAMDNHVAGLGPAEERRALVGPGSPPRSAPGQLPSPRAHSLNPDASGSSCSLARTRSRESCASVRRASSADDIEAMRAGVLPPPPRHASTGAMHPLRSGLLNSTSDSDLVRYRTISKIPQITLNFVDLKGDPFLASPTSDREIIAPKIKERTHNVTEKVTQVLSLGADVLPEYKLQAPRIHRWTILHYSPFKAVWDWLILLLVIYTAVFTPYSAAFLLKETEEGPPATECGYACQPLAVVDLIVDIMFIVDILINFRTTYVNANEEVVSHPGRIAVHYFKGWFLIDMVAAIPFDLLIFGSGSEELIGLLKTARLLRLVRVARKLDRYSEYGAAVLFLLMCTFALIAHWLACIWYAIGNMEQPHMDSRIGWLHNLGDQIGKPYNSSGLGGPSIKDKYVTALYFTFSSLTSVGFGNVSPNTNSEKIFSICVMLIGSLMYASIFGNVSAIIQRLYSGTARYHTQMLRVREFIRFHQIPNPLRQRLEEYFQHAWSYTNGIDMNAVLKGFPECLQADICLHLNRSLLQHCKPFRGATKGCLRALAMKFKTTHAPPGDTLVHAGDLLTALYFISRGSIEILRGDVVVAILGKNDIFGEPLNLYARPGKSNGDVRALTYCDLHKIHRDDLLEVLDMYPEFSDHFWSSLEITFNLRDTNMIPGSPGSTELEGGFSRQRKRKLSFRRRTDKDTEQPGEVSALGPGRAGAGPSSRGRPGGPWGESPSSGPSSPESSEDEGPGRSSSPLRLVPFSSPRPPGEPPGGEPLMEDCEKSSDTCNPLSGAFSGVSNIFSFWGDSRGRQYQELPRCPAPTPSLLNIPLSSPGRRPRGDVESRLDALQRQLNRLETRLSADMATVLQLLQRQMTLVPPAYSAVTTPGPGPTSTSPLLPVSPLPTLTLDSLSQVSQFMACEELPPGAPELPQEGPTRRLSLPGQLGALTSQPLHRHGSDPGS
UniProt O35505, whole entry: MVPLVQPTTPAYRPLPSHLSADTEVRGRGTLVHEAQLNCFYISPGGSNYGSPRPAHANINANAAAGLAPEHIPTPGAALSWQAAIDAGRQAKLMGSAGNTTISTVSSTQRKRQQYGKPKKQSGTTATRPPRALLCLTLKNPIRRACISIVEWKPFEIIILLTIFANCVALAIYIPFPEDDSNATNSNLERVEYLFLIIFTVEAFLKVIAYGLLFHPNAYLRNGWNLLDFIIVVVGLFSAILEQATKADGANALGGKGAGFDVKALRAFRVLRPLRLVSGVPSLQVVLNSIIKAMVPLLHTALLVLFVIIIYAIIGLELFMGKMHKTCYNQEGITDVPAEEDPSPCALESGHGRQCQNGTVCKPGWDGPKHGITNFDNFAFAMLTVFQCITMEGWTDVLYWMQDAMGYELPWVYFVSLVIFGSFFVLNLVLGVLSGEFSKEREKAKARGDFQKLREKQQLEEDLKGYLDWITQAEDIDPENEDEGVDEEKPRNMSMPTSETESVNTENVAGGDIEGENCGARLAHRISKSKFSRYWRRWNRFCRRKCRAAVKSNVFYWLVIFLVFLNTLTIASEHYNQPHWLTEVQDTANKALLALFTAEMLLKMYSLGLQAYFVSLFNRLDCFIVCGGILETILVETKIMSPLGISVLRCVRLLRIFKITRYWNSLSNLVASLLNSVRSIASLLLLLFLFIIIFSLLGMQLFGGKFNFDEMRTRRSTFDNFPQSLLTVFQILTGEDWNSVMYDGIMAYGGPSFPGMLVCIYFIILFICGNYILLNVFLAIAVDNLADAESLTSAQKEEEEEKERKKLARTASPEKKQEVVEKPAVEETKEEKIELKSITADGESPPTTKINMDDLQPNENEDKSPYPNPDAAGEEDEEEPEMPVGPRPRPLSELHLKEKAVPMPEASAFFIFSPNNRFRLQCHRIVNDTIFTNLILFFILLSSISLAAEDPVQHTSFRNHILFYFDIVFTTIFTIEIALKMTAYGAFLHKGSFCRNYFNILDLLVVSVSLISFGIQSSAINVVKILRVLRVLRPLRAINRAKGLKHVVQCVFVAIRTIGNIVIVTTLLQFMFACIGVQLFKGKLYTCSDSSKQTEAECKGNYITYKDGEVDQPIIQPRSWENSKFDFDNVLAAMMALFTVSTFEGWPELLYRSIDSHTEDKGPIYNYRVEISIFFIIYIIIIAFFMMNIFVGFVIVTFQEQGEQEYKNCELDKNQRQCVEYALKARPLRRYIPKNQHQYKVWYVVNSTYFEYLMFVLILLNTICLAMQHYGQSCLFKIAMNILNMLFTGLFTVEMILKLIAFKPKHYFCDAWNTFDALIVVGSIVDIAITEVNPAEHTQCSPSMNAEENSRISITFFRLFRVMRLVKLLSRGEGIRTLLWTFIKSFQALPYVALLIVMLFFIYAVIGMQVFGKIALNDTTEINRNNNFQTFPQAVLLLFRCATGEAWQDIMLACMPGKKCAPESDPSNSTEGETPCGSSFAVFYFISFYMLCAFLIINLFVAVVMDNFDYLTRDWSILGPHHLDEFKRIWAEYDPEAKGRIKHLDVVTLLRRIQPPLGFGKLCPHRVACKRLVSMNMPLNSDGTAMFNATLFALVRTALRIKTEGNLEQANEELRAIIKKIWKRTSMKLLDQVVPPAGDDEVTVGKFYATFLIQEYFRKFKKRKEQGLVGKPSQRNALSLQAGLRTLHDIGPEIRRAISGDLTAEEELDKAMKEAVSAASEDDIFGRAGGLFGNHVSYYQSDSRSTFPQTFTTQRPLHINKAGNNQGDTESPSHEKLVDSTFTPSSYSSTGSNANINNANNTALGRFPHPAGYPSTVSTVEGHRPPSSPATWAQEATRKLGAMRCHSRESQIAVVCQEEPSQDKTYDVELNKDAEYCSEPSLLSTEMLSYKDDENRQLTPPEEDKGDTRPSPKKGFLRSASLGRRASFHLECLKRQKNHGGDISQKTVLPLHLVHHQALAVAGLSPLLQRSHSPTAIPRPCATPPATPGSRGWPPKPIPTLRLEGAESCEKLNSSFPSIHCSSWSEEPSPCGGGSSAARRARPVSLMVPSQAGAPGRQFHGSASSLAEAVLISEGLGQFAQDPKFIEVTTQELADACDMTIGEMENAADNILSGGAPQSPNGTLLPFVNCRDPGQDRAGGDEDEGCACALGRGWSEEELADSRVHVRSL
UniProt Q14524, whole entry: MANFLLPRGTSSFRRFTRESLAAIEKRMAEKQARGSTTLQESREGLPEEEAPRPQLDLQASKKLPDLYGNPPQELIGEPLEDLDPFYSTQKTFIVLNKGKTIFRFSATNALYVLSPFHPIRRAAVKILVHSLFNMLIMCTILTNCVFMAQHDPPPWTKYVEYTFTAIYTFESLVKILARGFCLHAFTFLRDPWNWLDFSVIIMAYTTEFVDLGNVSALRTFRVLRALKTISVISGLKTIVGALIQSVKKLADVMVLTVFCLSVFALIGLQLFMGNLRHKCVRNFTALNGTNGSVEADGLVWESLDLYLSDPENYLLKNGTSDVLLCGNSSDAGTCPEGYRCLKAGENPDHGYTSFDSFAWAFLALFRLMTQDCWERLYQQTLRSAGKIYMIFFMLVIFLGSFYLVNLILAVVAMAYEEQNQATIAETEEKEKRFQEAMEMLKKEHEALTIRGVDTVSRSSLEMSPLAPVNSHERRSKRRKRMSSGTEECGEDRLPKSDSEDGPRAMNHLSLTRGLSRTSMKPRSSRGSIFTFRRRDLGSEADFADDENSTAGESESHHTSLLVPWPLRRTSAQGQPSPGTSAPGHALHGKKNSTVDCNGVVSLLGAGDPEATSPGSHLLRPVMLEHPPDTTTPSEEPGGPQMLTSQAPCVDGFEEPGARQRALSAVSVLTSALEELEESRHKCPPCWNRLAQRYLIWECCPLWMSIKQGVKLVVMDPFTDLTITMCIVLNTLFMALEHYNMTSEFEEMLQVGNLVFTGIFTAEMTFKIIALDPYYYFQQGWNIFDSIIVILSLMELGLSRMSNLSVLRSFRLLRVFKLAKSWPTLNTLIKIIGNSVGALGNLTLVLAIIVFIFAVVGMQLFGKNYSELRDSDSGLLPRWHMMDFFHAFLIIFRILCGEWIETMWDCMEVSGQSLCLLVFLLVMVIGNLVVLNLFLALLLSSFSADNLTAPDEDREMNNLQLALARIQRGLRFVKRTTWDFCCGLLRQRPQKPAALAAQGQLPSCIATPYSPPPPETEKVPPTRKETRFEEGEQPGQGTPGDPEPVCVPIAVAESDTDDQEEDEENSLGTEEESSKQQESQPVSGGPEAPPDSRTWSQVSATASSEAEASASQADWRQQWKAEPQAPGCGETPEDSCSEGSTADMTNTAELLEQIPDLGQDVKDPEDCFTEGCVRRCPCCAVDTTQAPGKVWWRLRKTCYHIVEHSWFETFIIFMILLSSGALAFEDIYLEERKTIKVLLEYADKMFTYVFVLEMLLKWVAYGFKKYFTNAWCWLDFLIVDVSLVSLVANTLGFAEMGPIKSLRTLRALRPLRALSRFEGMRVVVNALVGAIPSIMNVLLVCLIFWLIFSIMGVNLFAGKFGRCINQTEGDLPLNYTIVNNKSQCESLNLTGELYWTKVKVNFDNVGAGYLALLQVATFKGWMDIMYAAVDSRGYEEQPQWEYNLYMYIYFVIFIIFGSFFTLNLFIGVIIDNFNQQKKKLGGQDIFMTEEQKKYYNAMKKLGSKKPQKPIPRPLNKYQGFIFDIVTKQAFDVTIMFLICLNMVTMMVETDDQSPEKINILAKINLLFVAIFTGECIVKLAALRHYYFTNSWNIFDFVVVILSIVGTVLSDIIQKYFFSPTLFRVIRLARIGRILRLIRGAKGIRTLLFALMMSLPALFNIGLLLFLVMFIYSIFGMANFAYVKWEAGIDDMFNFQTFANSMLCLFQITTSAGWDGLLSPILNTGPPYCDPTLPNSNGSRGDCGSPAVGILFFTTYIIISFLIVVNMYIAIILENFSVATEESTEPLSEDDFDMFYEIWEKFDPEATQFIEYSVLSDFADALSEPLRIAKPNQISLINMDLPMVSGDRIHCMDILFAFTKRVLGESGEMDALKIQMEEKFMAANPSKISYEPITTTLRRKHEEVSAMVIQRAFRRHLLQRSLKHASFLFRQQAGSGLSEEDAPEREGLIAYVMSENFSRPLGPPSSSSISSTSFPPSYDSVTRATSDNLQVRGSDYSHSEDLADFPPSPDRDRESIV

A word on the IC50: it is the midpoint of a concentration-inhibition curve.

The target of assay [1] is Voltage-gated inwardly rectifying potassium channel KCNH2 (Homo sapiens, UniProt Q12809). Nature of the assay: Inhibition of hERG K channel. Type of assay: functional.
Assay [2] deals with Voltage-dependent L-type calcium channel subunit alpha-1C (Cavia porcellus, UniProt O35505). As to the kind of experiment: Inhibition of calcium current (ICaL) measured using whole-cell patch clamp experiments in isolated guinea pig ventricular myocytes. In kind it is functional, tissue-based, Heart, Ventricular myocyte.
For assay [3], the target named is Sodium channel protein type 5 subunit alpha (Homo sapiens, UniProt Q14524). Nature of the assay: Inhibition of sodium current measured using whole-cell patch clamp experiments in HEK-293 cells stably transfected with hNaV1.5 cDNA. Type of assay: functional, cell-based, HEK293. A general note: The patch-clamp technique gives a direct electrical read-out from membranes.

SMILES strings stand for the structures.

The compound `CC(C)COCC(CN(Cc1ccccc1)c1ccccc1)N1CCCC1` (stereo not given) [BEPRIDIL] returned an IC50 in assay [1] of 0.033 µM.

Take `CNCCCN1c2ccccc2CCc2ccccc21` [DESIPRAMINE]: the IC50 in assay [2] was determined as 1.71 µM; in assay [3] it was 1.52 µM.

Turning to `O=C1NC(=O)C(c2ccccc2)(c2ccccc2)N1` [PHENYTOIN], the figures for the IC50 in assay [2] and in assay [1] were 103 µM and 100 µM, respectively.
